## scFv variants of Ab-14 (light chain) against a SARS-CoV-2 spike peptide

Antigen: PDVDLGDISGINAS, a 14-residue peptide of the SARS-CoV-2 spike HR2 region.

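Library AAYL50 holds single substitutions and randomly drawn double and triple substitutions in the CDRs. The scFvs were displayed on barcoded MATa yeast, the peptide on MATalpha yeast. Binding brings cells together so that they mate, and sequencing counts the barcode pairs among the diploids. Scores were corrected for input abundance and mapped to Kd with protein pairs of known affinity run in the same pool. Each pool was mated in three replicate cultures.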

Parent scFv Ab-14: VH joined to VL by a (GGGGS)3 linker. Changes lie in the light chain CDRs alone.
VH: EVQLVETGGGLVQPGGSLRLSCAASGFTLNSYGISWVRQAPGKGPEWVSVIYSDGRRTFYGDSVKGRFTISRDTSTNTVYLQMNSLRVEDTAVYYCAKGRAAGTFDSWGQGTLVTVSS
VL: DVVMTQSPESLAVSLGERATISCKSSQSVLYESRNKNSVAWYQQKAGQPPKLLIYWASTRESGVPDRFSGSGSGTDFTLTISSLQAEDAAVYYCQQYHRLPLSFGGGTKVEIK

Each variant is given by its three light chain CDRs, as the data file delimits them; those of the parent are KSSQSVLYESRNKNSVA, WASTRES, QQYHRLPLS. Numbers give log10(Kd / nM), so 0 is 1 nM and 3 is 1 µM. Smaller is tighter. The mean shown is taken over the replicates in which the pair was detected. "n.d." means that the variant was in the library but no mating with the target was seen in that replicate; the authors take this as a sign of poor binding, and no number exists. Nonspecific signal, from three strains lacking the peptide, appeared in 18% of pairings of library AAYL50, centred on 4.19 (5% of these signals below 2.99); values are not corrected for it. The control count says in how many pairings with the empty strains this scFv gave a signal, with their mean in brackets.

| CDR-L1 | CDR-L2 | CDR-L3 | log10 Kd (nM) by replicate | mean, log10 nM | signal with controls |
|---|---|---|---|---|---|
| KSSQSVLYESANKNSLA | WASTRES | QQYHRIPLS | 1.36 / 1.44 / 1.09 | 1.30 | 0/9 |
| KSSQSVLYESRNKNSVA | WASTKES | QQYHYLPLS | 4.08 / 3.55 / n.d. | 3.82 | 0/9 |
| KSSSSVLYESRNKNSVF | WTSTRES | QQYHRLPLS | n.d. / n.d. / n.d. | n.d. | 0/9 |
| KSKQSVLYEHRNKCSVA | WASTRES | QQYHRLPLS | 4.51 / n.d. / n.d. | 4.51 | 1/9 (3.36) |
| KSGQSVLNESRNKNSVA | WASTRES | QQYHRLPLQ | 1.93 / 1.37 / 1.11 | 1.47 | 0/9 |
| KSSQSVLYESRNKNSVA | WPSTRES | MQYHRLPLS | n.d. / 4.46 / n.d. | 4.46 | 2/9 (3.84) |
| KSWQSVLYESRNKLSVA | WASTRES | NQYHRLPLS | n.d. / n.d. / n.d. | n.d. | 0/9 |
| KSSQSVLYESRAKNSYA | WASTRES | QQYHRLPAS | n.d. / n.d. / n.d. | n.d. | 0/9 |
| KSSASVFYESRNKNSVA | WASTRES | QQAHRLPLS | 4.42 / n.d. / 4.37 | 4.39 | 3/9 (4.05) |
| WSSQSVLYESRNKNSVA | WASTRES | QNYHPLPLS | n.d. / n.d. / n.d. | n.d. | 0/9 |
| KSSQSVLYESRNKNSVA | WALTRGS | QQKHRLPLS | 2.81 / n.d. / n.d. | 2.81 | 0/9 |
| KSSQNVLYESRNKNSVA | WASHREW | QQYHRLPLS | 2.06 / 2.08 / 2.22 | 2.12 | 4/9 (3.97) |
| KSSQSVLYESRNKNSVA | WASTREW | QQYHRLPLK | 1.28 / 1.23 / 1.42 | 1.31 | 1/9 (4.98) |
| KSSQSVLYESNNKNSQA | WASTRES | QRYHRLPLS | n.d. / n.d. / n.d. | n.d. | 0/9 |
| KSSQSVLYESRNKNSVA | WAHHRES | QQYHELPLS | 3.29 / 2.55 / 2.38 | 2.74 | 0/9 |
| KSSQSVLYESRNINSVA | WASTEES | QQYHRLPYS | 5.07 / n.d. / 5.24 | 5.16 | 1/9 (4.10) |
| KSSQSVLYGSRNKNIVA | WASTRES | QQYHRLPLI | 4.59 / 5.57 / 4.06 | 4.74 | 6/9 (4.70) |
| KSSVSVLYESRNKNSVA | WASTEES | QPYHRLPLS | n.d. / n.d. / n.d. | n.d. | 4/9 (3.92) |
| KSSQSVLYEYRNVNSVA | WASTRES | QQYHRLPMS | 2.25 / 2.10 / 2.21 | 2.19 | 6/9 (5.03) |
| KSSQSVLYHSRNKNSSA | WASTEES | QQYHRLPLS | n.d. / n.d. / n.d. | n.d. | 0/9 |
| KRSQPVLYESRNKNSVA | FASTRES | QQYHRLPLS | 3.23 / 2.66 / n.d. | 2.95 | 0/9 |
| KLSQSVLYESRNKNSVA | WAQTRES | QQYHGLPLS | 0.90 / 0.94 / 1.13 | 0.99 | 0/9 |
| KSSQSVLNNSRNENSVA | WASTRES | QQYHRLPLS | 0.42 / 0.82 / 0.72 | 0.66 | 1/9 (3.29) |
| KSTQSVLYESRSKNSVA | WASTRES | GQYHRLPLS | 2.33 / 2.01 / 2.07 | 2.14 | 5/9 (4.61) |
| KKSQSVLHESRNKNLVA | WASTRES | QQYHRLPLS | 5.77 / n.d. / n.d. | 5.77 | 2/9 (3.96) |
| KRSQSVKYESRNKNSVA | WASTRES | QQLHRLPLS | n.d. / n.d. / 4.13 | 4.13 | 1/9 (5.01) |
| KSSLSMLYESRNDNSVA | WASTRES | QQYHRLPLS | 0.15 / 0.55 / 0.32 | 0.34 | 5/9 (3.84) |
| WSSQSTLYESRNKNSVA | VASTRES | QQYHRLPLS | 3.95 / 4.04 / 4.09 | 4.02 | 4/9 (4.47) |
| KSSQSVLYENRNKLSVA | WASTRES | QQYHRLPLS | 1.58 / 1.97 / 1.83 | 1.79 | 2/9 (3.83) |
| ASSQSVLYESRNINSVA | WASTREK | QQYHRLPLS | n.d. / n.d. / n.d. | n.d. | 0/9 |
| KSLQSVLYESLNANSVA | WASTRES | QQYHRLPLS | 1.58 / 1.54 / 1.72 | 1.61 | 0/9 |
| KSSQSVLYESRNKNSVA | WASTRFS | QQYHRLVLM | 1.36 / 1.44 / 0.99 | 1.27 | 0/9 |
| KSGQSVLYESRNKNSVA | WASTRED | GQYHRLPLS | 2.16 / 2.70 / 2.22 | 2.36 | 1/9 (4.63) |
| KSSQSVLYEDRNKNSSL | WASTRES | QQYHRLPLS | 5.42 / n.d. / n.d. | 5.42 | 3/9 (3.86) |
| KSSQSVLFESRNKNSVA | WASTRTS | QQYHRLPYS | n.d. / n.d. / n.d. | n.d. | 0/9 |

For reference, 3 entries of the list once more:

CDR-L1,CDR-L2,CDR-L3,log10 Kd (nM) by replicate,"mean, log10 nM",signal with controls
KRSQPVLYESRNKNSVA,FASTRES,QQYHRLPLS,3.23 / 2.66 / n.d.,2.95,0/9
KSSQSVLYHSRNKNSSA,WASTEES,QQYHRLPLS,n.d. / n.d. / n.d.,n.d.,0/9
ASSQSVLYESRNINSVA,WASTREK,QQYHRLPLS,n.d. / n.d. / n.d.,n.d.,0/9

Reference: Engelhart et al. 2022, doi:10.1038/s41597-022-01779-4. File: FLAb, binding data.